Experiment [1] is described as follows: NCI Yeast Anticancer Drug Screen. Data for the rad50 strain (AID 155).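 Note: 0% = growth of vehicle-only cultures of the same strain.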 The conditions noted are these: S. cerevisiae rad50 strain growth inhibition, stronger effect = higher value.
Experiment [2] can be described thus: NCI Yeast Anticancer Drug Screen. Data for the mec2-1 strain (AID 157). The conditions noted are these: S. cerevisiae mec2-1 strain, stronger effect = higher value.
A short description of experiment [3]: NCI Yeast Anticancer Drug Screen. Data for the sgs1 mgt1 strain (AID 161).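 Note: 0% = growth of cultures given vehicle only.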 The conditions noted are these: S. cerevisiae sgs1 mgt1 strain, stronger effect = higher value.
Experiment [4] in a line: NCI Yeast Anticancer Drug Screen. Data for the cln2 rad14 strain (AID 165).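 Note: 0% = growth equal to vehicle treated cultures.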 The note with it: S. cerevisiae cln2 rad14 strain, stronger effect = higher value.
Experiment [5] can be described thus: NCI Yeast Anticancer Drug Screen. Data for the bub3 strain (AID 167). The note with it: S. cerevisiae bub3 mutant strain, stronger effect = higher value.
Experiment [6] in a line: NCI Yeast Anticancer Drug Screen. Data for the mlh1 rad18 strain (AID 175). The conditions noted are these: S. cerevisiae mlh1 rad18 strain growth inhibition, stronger effect = higher value.
[7] abbreviates: at 5.0 µM (retest, dose inferred, filed as 0.5).
Where [8] appears, read: at 50.0 µM (retest, dose inferred, filed as 5.0).

The entries are a selection whose mix differs from that of the whole data set. Where a structure was tested more than once in an assay, its records may differ in their call. Active and inactive are the calls of the source. Cut-off read from the data, not from the text of the source: active = growth inhibition above about 70%; inactive = the rest.

As for `CCCOCC(C#N)(c1ccccc1)N(C)C(N)=O.O=[N+]([O-])c1cc([N+](=O)[O-])c(O)c([N+](=O)[O-])c1` (centres undefined), the growth inhibition was inactive: -2% in experiment [1] (setting [7]); inactive: 3% in experiment [1] (setting [8]); inactive: 11.4% in experiment [1] (at 50.0 µM); inactive: 1% in experiment [2] (setting [7]); inactive: 1% in experiment [2] (setting [8]); inactive: 7% in experiment [2] (at 50.0 µM). Moreover, the growth inhibition in experiment [3] (setting [7]) is inactive: -3%; in experiment [3] (setting [8]), inactive: 6%; in experiment [3] (at 50.0 µM), inactive: -6.05%; in experiment [4] (setting [7]) it was inactive: 4%; in experiment [4] (setting [8]), inactive: 8%; in experiment [4] (at 50.0 µM) it was active: 71.3%. Also, the growth inhibition in experiment [5] (setting [7]) was inactive: 2%; in experiment [5] (setting [8]), inactive: 1%; in experiment [5] (at 50.0 µM), active: 94.2%; in experiment [6] (setting [7]), inactive: 2%; in experiment [6] (setting [8]), inactive: 4%; in experiment [6] (at 50.0 µM), inactive: 8.6%.
Take `C[n+]1ccccc1/C=C/c1ccccc1.O=[N+]([O-])c1cc([N+](=O)[O-])c([O-])c([N+](=O)[O-])c1`: the growth inhibition in experiment [1] (setting [7]) was inactive: -2%; in experiment [1] (setting [8]), inactive: -5%; in experiment [1] (at 50.0 µM), active: 93.6%; in experiment [2] (setting [7]) it was inactive: 0%; in experiment [2] (setting [8]), inactive: 2%; in experiment [2] (at 50.0 µM), active: 78.8%. In addition, the growth inhibition was inactive: -14% in experiment [3] (setting [7]); inactive: 10% in experiment [3] (setting [8]); active: 95.2% in experiment [3] (at 50.0 µM); inactive: 4% in experiment [4] (setting [7]); inactive: -7% in experiment [4] (setting [8]); active: 97.8% in experiment [4] (at 50.0 µM). Moreover, the growth inhibition is inactive: -2% in experiment [5] (setting [7]); inactive: -3% in experiment [5] (setting [8]); active: 78% in experiment [5] (at 50.0 µM); inactive: 1% in experiment [6] (setting [7]); inactive: -6% in experiment [6] (setting [8]); active: 91.2% in experiment [6] (at 50.0 µM).
For the compound `O=C1c2cc([N+](=O)[O-])ccc2-c2c1cc([N+](=O)[O-])cc2[N+](=O)[O-].c1ccc2c(c1)Cc1ccccc1-2`, the growth inhibition in experiment [1] (setting [7]) is active: 99%; in experiment [1] (setting [8]), active: 95%; in experiment [1] (at 50.0 µM), active: 79.2%; in experiment [2] (setting [7]) it was active: 100%; in experiment [2] (setting [8]), active: 97%; in experiment [2] (at 50.0 µM) it was active: 90.3%. The growth inhibition in experiment [3] (setting [7]) was active: 100%; in experiment [3] (setting [8]), inactive: 35%; in experiment [3] (at 50.0 µM), active: 88.7%; in experiment [4] (setting [7]) it was active: 97%; in experiment [4] (setting [8]) it was active: 89%; in experiment [4] (at 50.0 µM), active: 70.3%. For the same compound, the growth inhibition in experiment [5] (setting [7]) is active: 99%; in experiment [5] (setting [8]), active: 96%; in experiment [5] (at 50.0 µM), active: 93.5%; in experiment [6] (setting [7]) it was active: 99%; in experiment [6] (setting [8]), active: 93%; in experiment [6] (at 50.0 µM), active: 72.5%.
Turning to `Cc1c([N+](=O)[O-])cc([N+](=O)[O-])c(-c2c([N+](=O)[O-])cc([N+](=O)[O-])c(C)c2[N+](=O)[O-])c1[N+](=O)[O-]`, the growth inhibition in experiment [1] (setting [7]) is inactive: 15%; in experiment [1] (setting [8]), active: 87%; in experiment [1] (at 50.0 µM) it was inactive: 41.8%; in experiment [2] (setting [7]), inactive: 28%; in experiment [2] (setting [8]) it was active: 88%; in experiment [2] (at 50.0 µM) it was inactive: 26%. Also, the growth inhibition is inactive: 53% in experiment [3] (setting [7]); active: 91% in experiment [3] (setting [8]); active: 82.8% in experiment [3] (at 50.0 µM); inactive: 5% in experiment [4] (setting [7]); active: 78% in experiment [4] (setting [8]); inactive: 49.1% in experiment [4] (at 50.0 µM). Also, the growth inhibition is inactive: 46% in experiment [5] (setting [7]); active: 90% in experiment [5] (setting [8]); inactive: 21.8% in experiment [5] (at 50.0 µM); inactive: 25% in experiment [6] (setting [7]); active: 90% in experiment [6] (setting [8]); inactive: 53.9% in experiment [6] (at 50.0 µM).
Turning to `O=[N+]([O-])c1ccc2c(c1)/C(=N/N=C1/c3cc([N+](=O)[O-])ccc3-c3c1cc([N+](=O)[O-])cc3[N+](=O)[O-])c1cc([N+](=O)[O-])cc([N+](=O)[O-])c1-2`, the growth inhibition was inactive: -3% in experiment [1] (setting [7]); active: 86% in experiment [1] (setting [8]); active: 86% in experiment [1] (at 50.0 µM); inactive: 2% in experiment [2] (setting [7]); active: 81% in experiment [2] (setting [8]); active: 84.9% in experiment [2] (at 50.0 µM). The growth inhibition is inactive: -7% in experiment [3] (setting [7]); active: 93% in experiment [3] (setting [8]); inactive: 42% in experiment [3] (at 50.0 µM); inactive: -11% in experiment [4] (setting [7]); active: 74% in experiment [4] (setting [8]); inactive: 15.3% in experiment [4] (at 50.0 µM). Also, the growth inhibition was inactive: 16% in experiment [5] (setting [7]); active: 97% in experiment [5] (setting [8]); active: 98.3% in experiment [5] (at 50.0 µM); inactive: 10% in experiment [6] (setting [7]); active: 93% in experiment [6] (setting [8]); active: 92.7% in experiment [6] (at 50.0 µM).
`Nc1ccccc1.O=[N+]([O-])c1cc([N+](=O)[O-])cc([N+](=O)[O-])c1`: the growth inhibition in experiment [1] (at 1.2 µM) is inactive: -2%; in experiment [1] (at 3.7 µM), inactive: 4%; in experiment [1] (setting [7]), inactive: 16%; in experiment [1] (at 11.0 µM), inactive: 45%; in experiment [1] (at 33.0 µM), active: 98%; in experiment [1] (setting [8]), active: 99%. Moreover, the growth inhibition in experiment [1] (at 50.0 µM) is active: 99.6%; in experiment [1] (at 100.0 µM) it was active: 98%; in experiment [2] (at 1.2 µM) it was inactive: 1%; in experiment [2] (at 3.7 µM) it was inactive: 6%; in experiment [2] (setting [7]), inactive: 23%; in experiment [2] (at 11.0 µM), inactive: 42%. For the same compound, the growth inhibition is active: 99% in experiment [2] (at 33.0 µM); active: 100% in experiment [2] (setting [8]); active: 99.7% in experiment [2] (at 50.0 µM); active: 99% in experiment [2] (at 100.0 µM); inactive: 34% in experiment [3] (setting [7]); active: 99% in experiment [3] (setting [8]). Also, the growth inhibition was active: 99.8% in experiment [3] (at 50.0 µM); inactive: 7% in experiment [4] (setting [7]); active: 99% in experiment [4] (setting [8]); active: 96.8% in experiment [4] (at 50.0 µM); inactive: -2% in experiment [5] (at 1.2 µM); inactive: 2% in experiment [5] (at 3.7 µM). Also, the growth inhibition in experiment [5] (setting [7]) was inactive: 25%; in experiment [5] (at 11.0 µM) it was inactive: 43%; in experiment [5] (at 33.0 µM), active: 98%; in experiment [5] (setting [8]), active: 99%; in experiment [5] (at 50.0 µM), active: 99.2%; in experiment [5] (at 100.0 µM) it was active: 99%. Also, the growth inhibition in experiment [6] (setting [7]) is inactive: 27%; in experiment [6] (setting [8]) it was active: 99%; in experiment [6] (at 50.0 µM), active: 85.1%.
With `C=CCc1cccc2ccccc12.O=[N+]([O-])c1cc([N+](=O)[O-])cc([N+](=O)[O-])c1`, the growth inhibition was inactive: 25% in experiment [1] (setting [7]); active: 99% in experiment [1] (setting [8]); active: 99.6% in experiment [1] (at 50.0 µM); inactive: 14% in experiment [2] (setting [7]); active: 100% in experiment [2] (setting [8]); active: 99.5% in experiment [2] (at 50.0 µM). Besides, the growth inhibition is inactive: 37% in experiment [3] (setting [7]); active: 100% in experiment [3] (setting [8]); active: 99.5% in experiment [3] (at 50.0 µM); inactive: 6% in experiment [4] (setting [7]); active: 99% in experiment [4] (setting [8]); active: 99% in experiment [4] (at 50.0 µM). Moreover, the growth inhibition is inactive: 33% in experiment [5] (setting [7]); active: 99% in experiment [5] (setting [8]); active: 99.3% in experiment [5] (at 50.0 µM); inactive: 17% in experiment [6] (setting [7]); active: 99% in experiment [6] (setting [8]); active: 99.2% in experiment [6] (at 50.0 µM).
On to `CC(O)C1CCCCN1C.O=[N+]([O-])c1cc([N+](=O)[O-])c(O)c([N+](=O)[O-])c1`, for which the growth inhibition in experiment [1] (setting [7]) is inactive: 2%; in experiment [1] (setting [8]) it was inactive: 8%; in experiment [1] (at 50.0 µM), inactive: 6%; in experiment [2] (setting [7]), inactive: 14%; in experiment [2] (setting [8]), inactive: 35%; in experiment [2] (at 50.0 µM) it was inactive: 3.1%. The growth inhibition is inactive: 1% in experiment [3] (setting [7]); inactive: -29% in experiment [3] (setting [8]); inactive: 44% in experiment [3] (at 50.0 µM); inactive: -7% in experiment [4] (setting [7]); inactive: 0% in experiment [4] (setting [8]); inactive: -2.4% in experiment [4] (at 50.0 µM). The growth inhibition is inactive: -8% in experiment [5] (setting [7]); inactive: -10% in experiment [5] (setting [8]); inactive: 8.35% in experiment [5] (at 50.0 µM); inactive: -3% in experiment [6] (setting [7]); inactive: -1% in experiment [6] (setting [8]); inactive: -8.9% in experiment [6] (at 50.0 µM).

For the origin of these results see PubChem BioAssay (NCI).
